{"source": "patent US20240033282A1", "about": "“METHOD FOR IDENTIFYING AND/OR FOR OBTAINING AN ACTIVE SUBSTANCE FOR THE TREATMENT AND THERAPY OF FAMILIAL AMYOTROPHIC LATERAL SCLEROSIS, AND USE OF AN ACTIVE SUBSTANCE FOR THE TREATMENT OF THIS DISEASE” (Forschungszentrum Juelich GmbH, priority 2020, published 2024)", "origin": "cited, not measured here", "tested_on": "ALS", "settings": "cited from earlier work", "data": [{"smiles": "Nc1nc2ccc(OC(F)(F)F)cc2s1", "note": "[riluzole]", "values": [{"measurement": "increase in the 1-year survival rate", "result": 9, "unit": "%"}, {"measurement": "survival advantage", "result": "2-3 months"}]}]}
